Laboratory results reported in BindingDB's records for doi:10.1016/0014-2999(95)00786-5 (Cnrs Upr 9023, 1996).

The chains behind the UniProt entries cited, without tags or fusion partners. Where a name states a change or a piece, a line headed by the entry shows the natural chain unless it says otherwise.
UniProt Q13639: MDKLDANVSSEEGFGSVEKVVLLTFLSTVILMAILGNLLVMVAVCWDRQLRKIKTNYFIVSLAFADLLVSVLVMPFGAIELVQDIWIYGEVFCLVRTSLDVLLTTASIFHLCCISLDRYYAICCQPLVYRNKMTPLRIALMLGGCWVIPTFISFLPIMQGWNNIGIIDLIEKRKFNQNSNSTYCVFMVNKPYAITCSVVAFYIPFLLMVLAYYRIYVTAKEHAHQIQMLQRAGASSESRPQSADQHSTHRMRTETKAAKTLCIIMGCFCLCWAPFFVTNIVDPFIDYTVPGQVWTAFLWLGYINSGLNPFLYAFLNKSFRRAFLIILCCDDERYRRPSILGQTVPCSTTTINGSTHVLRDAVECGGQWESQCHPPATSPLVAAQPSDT

Target: 5-hydroxytryptamine receptor 4 (Homo sapiens, UniProt Q13639)

## COc1cc(N)c(Cl)cc1C(=O)NC1CCN2CCCC1C2 (stereo unspecified) [NSC_3035240]
  Ki: 0.251 µM
